Data on 2 compounds can be found in publication PMC10079235 (PLOS Neglected Tropical Diseases, 2023).

Data set [1] concerns HCT-8/MDR1(PTX) cells. Particulars: after selection by PTX. How it is done:
(§1) Host cell drug tolerance to specified inhibitors was evaluated by 3-(4,5-dimethylthiazol-2-yl)-5-(3-carboxymethoxyphenyl)-2-(4-sulfophenyl)-2H-tetrazolium (MTS) assay. WT and transgenic host cells were seeded in 96-well plates (10,000 cells/well) and cultured for 24 h, followed by the addition of specified compounds at serially diluted concentrations and continued culture for 41 h. After 3 washes with serum-free medium, MTS solution (Saint-Bio, Shanghai, China) was added into the plates (20 μL/well) and incubated at 37°C for 2 h. Optical density at 490 nm (OD490) was measured using a Synergy LX multi-mode reader (BioTek, Winooski, VT). Drug tolerance was indicated by half-maximal cytotoxic concentrations (TC50 values) calculated by nonlinear regression using 4PL model. Selectivity index (SI) for each compound was determined by the ratio between TC50 and EC50 values (SI = TC50/EC50).
(§2) Surviving cells were allowed to recover in drug-free medium for 3–5 d to near confluence (round 1). The selection/recovery cycle were repeated once (round 2). […] The resulting cell lines after PTX or NTZ selection were designated as WT(PTX), NC(PTX) and MDR1(PTX), or WT(NTZ), NC(NTZ) and MDR1(NTZ), respectively (Tables 1 and S2).

In data set [2] the test system is HCT-8/MDR1(NTZ) cells. The experiment in a line: MTS cytotoxicity (drug tolerance) assay. Particulars: after selection by NTZ. How it is done:
as §1, §2

Data set [3] deals with HCT-8/NC(PTX) cells. In words: MTS cytotoxicity (drug tolerance) assay. Conditions: after selection by PTX. Here is the method:
as §1, §2

Data set [4] relates to HCT-8/NC(NTZ) cells. In words: MTS cytotoxicity (drug tolerance) assay. Conditions: after selection by NTZ vs parent cell line. How it is done: as §1
Surviving cells were allowed to recover in drug-free medium for 3–5 d to near confluence (round 1). The selection/recovery cycle were repeated once (round 2). […] Finally, all cells were cultured at the final selection concentrations of PTX or NTZ for ≥7 d, followed by culture in drug-free medium for 14 d. At this time point, cells were used for cytotoxicity and efficacy assays or cryopreserved in a liquid nitrogen tank. […]

Where a name gives a salt, the structure may show the parent alone.

As for `CN(C)C(=O)C(CCN1CCC(O)(c2ccc(Cl)cc2)CC1)(c1ccccc1)c1ccccc1` [Loperamide, Loperamide HCl], the TC50 in data set [1] was determined as 15.34 µM; in data set [2] it was 15.35 µM; in data set [3], 15.17 µM.
Turning to `CC(=O)Oc1ccccc1C(=O)Nc1ncc([N+](=O)[O-])s1` [Nitazoxanide], the “Fold increase of TC50 NC(NTZ) vs. NC” value in data set [4] was determined as 1.51.
